Tested on: choline acetyl transferase activity
Assay: Choline acetyl transferase activity in brain extracts of AF64A-treated rats
Type: in vivo, rat
Conditions: AF64A-treated vs sham-treated controls, three animals per group

Substance: ethylcholine aziridium
- Reduction in choline acetyl transferase activity: 11+2.6%
